In ChEMBL document CHEMBL1127699, “Inhibitors of acyl-CoA:cholesterol acyltransferase. 1. Synthesis and hypocholesterolemic activity of dibenz[b,e]oxepin-11-carboxanilides” (J Med Chem, 1994):

Target: T1, Acyl-CoA:cholesterol acyltransferase (Oryctolagus cuniculus, UniProt Q95214)
T1 sequence (Q95214 whole entry): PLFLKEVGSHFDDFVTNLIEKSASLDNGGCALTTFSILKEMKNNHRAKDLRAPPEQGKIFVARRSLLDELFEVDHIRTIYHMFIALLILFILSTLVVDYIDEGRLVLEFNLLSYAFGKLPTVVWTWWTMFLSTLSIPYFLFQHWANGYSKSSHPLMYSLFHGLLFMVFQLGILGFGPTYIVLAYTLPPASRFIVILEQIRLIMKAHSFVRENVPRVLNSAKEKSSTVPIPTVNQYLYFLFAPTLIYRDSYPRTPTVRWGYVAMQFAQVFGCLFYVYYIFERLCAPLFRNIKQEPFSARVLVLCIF
Assay: In vitro inhibitory activity against acyl coenzyme A:cholesterol acyltransferase in liver microsomes isolated from cholesterol-fed rabbits
Set-up: species or system Microsome

IC50: 320 nM
SMILES: CCCCCCCN(Cc1ccc(CC(C)(C)C)cc1)C(=O)Nc1ccc(F)cc1F [CL-277082]
